Reference: US6689764B1, “Treatment of angiogenesis dependent conditions with dextrin sulphate” (priority 1999, dated 2004)

Test system: peritoneal macrophages
Conditions: 100 μg/ml, after 3 weeks of continuous culture

## dextrin 6-sulphate
  accumulation in cultured cells: only found to accumulate in peritoneal macrophages

## dextrin 2-sulphate
  accumulation in cultured cells: only found to accumulate in peritoneal macrophages
